Data taken from ChEMBL document CHEMBL1138582, “5-Aminopyrimidin-2-ylnitriles as cathepsin K inhibitors” (Bioorg Med Chem Lett, 2009).
pIC50: −log10 of the molar value.

Biological target: Cathepsin B (Homo sapiens, UniProt P07858)
Assay: Inhibition of cathepsin B

- pIC50: < 5.00
SMILES: CC(C)CNc1nc(C#N)nc(N2CCOCC2)c1N
